Assay results published in article PMC9260860 (Biochemistry, 2021).

System: 5′-methylthioadenosine
Assay: purified protein, by the assay type
Conditions: other: deamination by HpAFLDA, 50 mM HEPES pH 7.0, 25 °C

For “HpAFLDA (jhp0252) (Helicobacter pylori J99)”, the Km was 100 ± 10 µM, the kcat was 1.24 s⁻¹ and the kcat/Km was 13000 M⁻¹ s⁻¹.
